Activity calls are given as the source filed them. The calls are words filed in the database; no cut-off is given here.
Target: Human immunodeficiency virus type 1 reverse transcriptase (Human immunodeficiency virus 1) (UniProt Q72547)
Assay: Inhibition of HIV1 reverse transcriptase DNA polymerase activity up to 10 uM

O=c1nc(NCC2CC2)c2cccnc2n1O
inhibition: inactive
